The results in this text go back to ChEMBL document CHEMBL5532663, “Discovery of Potent and Selective Phosphatidylinositol 3-Phosphate 5-Kinase (PIKfyve) Inhibitors as Methuosis Inducers” (J Med Chem, 2024).

Series [1] is described as follows: in vivo. The note with it: Balb/C, mouse, iv, 10 mg/kg.
A short description of series [2]: in vivo. The settings on record: Balb/C, mouse, iv, 10 mg/kg. The source holds these as a separate data set.
Series [3] is described as follows: in vivo. The settings on record: Balb/C, mouse, po, 50 mg/kg.
Series [4] can be described thus: in vivo. The settings on record: Balb/C, mouse, po, 50 mg/kg. This is another data set of the same source.
Series [5] in a line: in vivo. The settings on record: Balb/C, mouse, po, 50 mg/kg. This is another data set of the same source.
The nature of series [6]: in vivo. The settings on record: Balb/C, mouse, po, 50 mg/kg. The source holds these as a separate data set.
Series [7] can be described thus: in vivo. The note with it: Balb/C, mouse, po, 50 mg/kg. This is another data set of the same source.
Series [8] relates to HeLa. As to the kind of experiment: animal or person. The settings on record: Mus musculus, po, 240 h, read-out: TGI.
Series [9] relates to MDA-MB-231. As to the kind of experiment: cells. The note with it: Homo sapiens, MDA-MB-231, 24 h.
The test system of series [10] is HeLa. In words: cells. The note with it: Homo sapiens, 24 h.
Series [11] relates to HeLa. As to the kind of experiment: animal or person. The settings on record: Mus musculus, 240 h, read-out: TGI.
The subject of series [12] is MDA-MB-231. The note with it: Homo sapiens, dose 50-800 nM, time 14.0 day.
Series [13] relates to HeLa. The settings on record: Homo sapiens, dose 50-800 nM, time 14.0 day.

In general, clearance refers to a measure of how efficiently the substance is removed, as volume per time. Higher therefore signals a high capacity for elimination. One may read the Vd as a proportionality between amount in the body and measured concentration, not a real space. What is called Cmax is the peak of the concentration-time curve. As usually defined, the half-life is how long it takes for the measured level to halve. High values mean slow decline, low ones rapid decline. The term CL/F denotes the apparent clearance, not corrected for the fraction that reaches the circulation. In general, AUC(0-t) refers to exposure summed from dosing to a finite time, without extrapolation to infinity. Lower therefore signals less exposure. What is called bioavailability is dose-corrected exposure relative to a reference, in per cent. In “in vivo [1]”, `Cc1ccc2oc(-c3cn([C@H]4CC[C@@H](N)CC4)c4ncnc(N)c34)cc2c1` had a clearance at 24 h of 4.5 mL/min/kg. In the series “in vivo [2]”, this compound came in with a Vd at 24 h of 1.7 L/kg. This compound also displayed a Cmax at 24 h in the series “in vivo [3]” of 10300 µg/mL. The compound further showed a half-life at 24 h in the series “in vivo [4]” of 5.7 h. This compound also showed a CL/F at 24 h in “in vivo [5]” of 1.17 mL/min/kg. The AUC(0-t) at 24 h in “in vivo [6]” amounted to 127 µg·h/mL. The compound also yielded a bioavailability at 24 h in “in vivo [7]” of 70.9%. The inhibition in vivo at 20 mg/kg in the series on HeLa [8] came out at 61.5%.
By IC50 is commonly meant the point on the concentration scale where inhibition reaches its midpoint. A low value points to greater potency in that assay. Take `Cc1ccc(NC(=O)c2cccc(C(F)(F)F)c2)cc1Nc1cc(-c2cccnc2)nc2[nH]ccc12`: the values for the 50% inhibitory concentration (IC50) in the series on MDA-MB-231 [9] and in the series with HeLa [10] were 780 nM and 1000 nM, respectively. Besides, the inhibition in vivo at 20 mg/kg in the series with HeLa [11] was found to be 53.8%.
With `Nc1ncnc2c1c(-c1cc3ccccc3o1)cn2[C@H]1CC[C@@H](N)CC1`, the inhibition result with MDA-MB-231 [12] and in the series with HeLa [13] was “Dose-Dependent Effect” each time.
